From patent US20100330033A1, “Protein-carrier conjugates” (priority 2009, published 2010)

Conditions: for Stability of εN-mPEG10000-αN-Laurate-Lysine-Phenylalanine (%), calculated from αN-Laurate-Lysine-Phenylalanine released: 0.5 mM

In the case of εN-mPEG-αN-Laurate-Lysine-Phenylalanine, the “Rate (%/day)” value (Buffer pH 5, 37° C.) is reported as 2.51 %/day, the “Concentration of Lauric acid in the Stability Sample” value (“Concentration of Lauric acid” below) (Buffer pH 5, Initial, 37° C.) is reported as 0.50% and the “Concentration of Phenylalanine in the Stability Sample” value (shortened to “Concentration of Phenylalanine”) (Buffer pH 5, Initial, 37° C.) is reported as 0.50%. The “Stability of εN-mPEG10000-αN-Laurate-Lysine-Phenylalanine (%), calculated from αN-Laurate-Lysine-Phenylalanine released” value (Buffer pH 5, Initial, 37° C.) was 100%, the “Concentration of Lauric acid” value (Buffer pH 5, Week 1, 37° C.) was 0.47% and the “Concentration of Phenylalanine” value (Buffer pH 5, Week 1, 37° C.) was 0.50%. For the same substance, the “Stability of εN-mPEG10000-αN-Laurate-Lysine-Phenylalanine (%), calculated from αN-Laurate-Lysine-Phenylalanine released” value (Buffer pH 5, Week 1, 37° C.) was 98.8%, the “Concentration of Lauric acid” value (Buffer pH 5, Week 2, 37° C.) was 0.53% and the “Concentration of Phenylalanine” value (Buffer pH 5, Week 2, 37° C.) was 0.51%. The “Stability of εN-mPEG10000-αN-Laurate-Lysine-Phenylalanine (%), calculated from αN-Laurate-Lysine-Phenylalanine released” value (Buffer pH 5, Week 2, 37° C.) was 79.9%, the “Concentration of Lauric acid” value (Buffer pH 5, Week 3, 37° C.) was 0.55% and the “Concentration of Phenylalanine” value (Buffer pH 5, Week 3, 37° C.) was 0.54%. For the same substance, the “Stability of εN-mPEG10000-αN-Laurate-Lysine-Phenylalanine (%), calculated from αN-Laurate-Lysine-Phenylalanine released” value (Buffer pH 5, Week 3, 37° C.) was 14.2%, the “Rate (%/day)” value (Buffer pH 7, 37° C.) was 2.18 %/day and the “Concentration of Lauric acid” value (Buffer pH 7, Initial, 37° C.) was 0.50%. The “Concentration of Phenylalanine” value (Buffer pH 7, Initial, 37° C.) was 0.50%, the “Stability of εN-mPEG10000-αN-Laurate-Lysine-Phenylalanine (%), calculated from αN-Laurate-Lysine-Phenylalanine released” value (Buffer pH 7, Initial, 37° C.) was 100% and the “Concentration of Lauric acid” value (Buffer pH 7, Week 1, 37° C.) was 0.46%. For the same substance, the “Concentration of Phenylalanine” value (Buffer pH 7, Week 1, 37° C.) was 0.50%, the “Stability of εN-mPEG10000-αN-Laurate-Lysine-Phenylalanine (%), calculated from αN-Laurate-Lysine-Phenylalanine released” value (Buffer pH 7, Week 1, 37° C.) was 72.2% and the “Concentration of Lauric acid” value (Buffer pH 7, Week 2, 37° C.) was 0.52%. For the same substance, the “Concentration of Phenylalanine” value (Buffer pH 7, Week 2, 37° C.) was 0.53%, the “Stability of εN-mPEG10000-αN-Laurate-Lysine-Phenylalanine (%), calculated from αN-Laurate-Lysine-Phenylalanine released” value (Buffer pH 7, Week 2, 37° C.) was 40.5% and the “Concentration of Lauric acid” value (Buffer pH 7, Week 3, 37° C.) was 0.54%. For the same substance, the “Concentration of Phenylalanine” value (Buffer pH 7, Week 3, 37° C.) was 0.60%, the “Stability of εN-mPEG10000-αN-Laurate-Lysine-Phenylalanine (%), calculated from αN-Laurate-Lysine-Phenylalanine released” value (Buffer pH 7, Week 3, 37° C.) was 4.7% and the “Rate (%/day)” value (Buffer pH 8, 37° C.) was 2.84 %/day. For the same substance, the “Concentration of Lauric acid” value (Buffer pH 8, Initial, 37° C.) was 0.50%, the “Concentration of Phenylalanine” value (Buffer pH 8, Initial, 37° C.) was 0.50% and the “Stability of εN-mPEG10000-αN-Laurate-Lysine-Phenylalanine (%), calculated from αN-Laurate-Lysine-Phenylalanine released” value (Buffer pH 8, Initial, 37° C.) was 100%. For the same substance, the “Concentration of Lauric acid” value (Buffer pH 8, Week 1, 37° C.) was 0.44%, the “Concentration of Phenylalanine” value (Buffer pH 8, Week 1, 37° C.) was 0.50% and the “Stability of εN-mPEG10000-αN-Laurate-Lysine-Phenylalanine (%), calculated from αN-Laurate-Lysine-Phenylalanine released” value (Buffer pH 8, Week 1, 37° C.) was 63.9%. For the same substance, the “Concentration of Lauric acid” value (Buffer pH 8, Week 2, 37° C.) was 0.53%, the “Concentration of Phenylalanine” value (Buffer pH 8, Week 2, 37° C.) was 0.48% and the “Stability of εN-mPEG10000-αN-Laurate-Lysine-Phenylalanine (%), calculated from αN-Laurate-Lysine-Phenylalanine released” value (Buffer pH 8, Week 2, 37° C.) was 40.5%. The “Concentration of Lauric acid” value (Buffer pH 8, Week 3, 37° C.) was 0.59%, the “Concentration of Phenylalanine” value (Buffer pH 8, Week 3, 37° C.) was 0.58% and the “Stability of εN-mPEG10000-αN-Laurate-Lysine-Phenylalanine (%), calculated from αN-Laurate-Lysine-Phenylalanine released” value (Buffer pH 8, Week 3, 37° C.) was 26.5%. The “specific hydrolysis rate, based on the releasing rate of αN-Laurate-Lysine-Phenylalanine” value (across the pH range from 5.0 to 8.0, 37° C.) was “less than 3 % per day” and the “stability of both carbamide bonds (laurate-lysine and lysine-phenylalanine) under the stress conditions” value (up to 3 weeks, pH range 5.0 to 8.0, 37° C.) was “very stable”.

Where two headings read alike, the source gives them in different places.
